Laboratory results from patent US20190125701A1 (priority 2016, published 2019).

Test system: hCMV
Assay: Immunostaining for hCMV gB in human dermal fibroblasts
Conditions: 1 mM for 24 hrs prior to viral challenge, MOI 1, mean±SEM, n=5

Structure (SMILES): CCCC(CCC)C(N)=O [VPD, 2-propylpentanamide]
- hCMV gB immunoreactive infected cells compared to control: 56%±7%
